Experimental data from patent US20110028717A1, “AZAINDOLE DERIVATIVE HAVING PGD2 RECEPTOR ANTAGONISTIC ACTIVITY” (priority 2005, published 2011).

Chains of the proteins cited; added tags and fusions are not shown.
UniProt Q13258, whole entry: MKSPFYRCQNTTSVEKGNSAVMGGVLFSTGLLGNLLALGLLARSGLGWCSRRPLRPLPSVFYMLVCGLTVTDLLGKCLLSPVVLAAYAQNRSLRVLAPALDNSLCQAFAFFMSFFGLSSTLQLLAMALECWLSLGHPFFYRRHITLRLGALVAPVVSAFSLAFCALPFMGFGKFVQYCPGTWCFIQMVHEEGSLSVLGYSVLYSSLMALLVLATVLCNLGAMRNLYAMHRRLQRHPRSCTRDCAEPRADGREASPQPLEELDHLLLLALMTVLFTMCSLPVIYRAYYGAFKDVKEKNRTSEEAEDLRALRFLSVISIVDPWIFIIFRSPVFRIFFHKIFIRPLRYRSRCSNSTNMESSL

Tests used:
Brown Norway (BN) Rats = assay: OVA asthma model of rat (hyperresponsive airway, infiltration of inflammatory cells, mucus secretion); conditions: 10 mg/kg p.o. once a day for three days
Experimental: Brown Norway (BN) Rats were sensitized by i.p. administration of 0.1 mg/mL of ovalbumin (OVA) and 1 mg of aluminum hydroxide gel. A solution of 1% OVA was aerosolized by ultrasonic nebulizer (NE-U 17) and the rats were subjected to inhalation exposure of the aerosol for 30 minutes in an exposing chamber 12, 19, 26 and 33 days after the sensitization. One hour before the 4th exposure of the antigen, compounds of the present invention were administered in a dose of 10 mg/kg p.o. once a day for three days consecutively. In a control group, 0.5% of methyl cellulose was administered in place of the compound of the present invention.
Under pentobarbital anesthesia (80 mg/kg, i.p.), acetylcholine (3.9, 7.8, 15.6, 31.3, 62.5, 125, 250 and 500 μg/kg) was injected to jugular vein of the rats successively from a lower dose at intervals of 5 minutes three days after the fourth exposure to the antigen, and immediate contractile reaction of airways (an increase of insufflation pressure) was measured by a modified method of Konnzett & Rössler. Inhibition rate of increased hyperresponsive airway against the control group was calculated based on area under curve (AUC) obtained from concentration-response curve of acetylcholine.
After the measurement of increased hyperresponsive airway was completed, bronchoalveoli of the rats were washed with 5 mL of saline three times. Total cell number in the washings was counted by a hemacytometer under light microscope, and inhibition rates of infiltration of inflammatory cells against the control group were calculated. Further, muchin in the airway lavage fluid was measured by ELIZA method using jacalin, a muchin-binding lectin, and the inhibition rates of mucus-secretion against the control group were calculated.

DP receptor [1] = biological target: T1, DP receptor (Homo sapiens, UniProt Q13258); assay: Receptor binding assay, [3H]-PGD2, platelet membrane; conditions: read-out: Ki (receptor binding assay); [3H]-PGD2, human platelet membrane
Experimental: A prepared WP was homogenated and a membrane fraction was collected with high-speed centrifugation. A compound of the present invention or a reference compound A (No. IC-73 in WO 2003/097598) was added to the plate and [^3H]-PGD2 was also added. A platelet membrane, a protein concentration is 2 mg/mL, was added and mixed in the plate, and placed on ice for 2 hours. The reaction solution was transferred to a low protein-adsorptive filter and washed with a wash solution eight times using a cell harvester. After the final washing, water was removed sufficiently, and micoscinti was added. DP inhibitory activity was investigated by measuring [^3H] by using Micro Beta.

DP receptor [2] = biological target: T1, DP receptor; assay: cAMP assay with washed platelets (PGD2-stimulated cAMP, HTRF); conditions: read-out: IC50 (50% DP-inhibitory concentration in the cAMP assay), 100 nM PGD2, cAMP by HTRF
Experimental: 30 ml of peripheral blood was collected from a healthy volunteer using a syringe containing one ninth amount of 3.8% sodium citrate for diagnosis. After being centrifuged at 180 g for 10 minutes at room temperature, a supernatant was collected and used as Platelet Rich Plasma (PRP). The resulting PRP was washed with wash buffer and centrifuged three times (Washed Platelet: WP) and platelets were counted by a microcell counter. WP was added to a plate in amount of 1.5×10^8/assay and the plate was treated with 3-isobutyl-1-methylxanthin (IBMX; 0.5 mM) for 5 minutes. A reaction was initiated by adding 100 nM of PGD2 5 min after an addition of a test compound. The reaction was terminated with an addition of 1N hydrochloric acid after 2 minutes and the cells were destructed using 12% triton X-100. An amount of cAMP in the supernatant was assayed by Homogeneous […] (HTRF)

Ki (DP receptor [1]): 0.91 nM | IC50 (DP receptor [2]): 1.6 nM
Compound: CC(C)Oc1ccc(S(=O)(=O)N2CCC(c3cn(CC(=O)O)c4nc(Cl)ccc34)CC2)cc1
inhibition rate (%) mucus-secretion (Brown Norway (BN) Rats; mucin in airway lavage fluid vs control group): 55% | inhibition rate (%) infiltration of inflammatory cells (Brown Norway (BN) Rats; total cell number in bronchoalveolar washings vs control group): 48% | inhibition rate (%) increased hyperresponsive airway (Brown Norway (BN) Rats; vs control group, AUC of acetylcholine response): 64%
